Reference: patent US20260217660A1, “INHIBITORS OF ACTIVIN RECEPTOR TYPE I (ACVRI) AND ACTIVIN RECEPTOR LIKE TYPE I (ACVRLI), AND METHODS USING SAME” (Baylor College of Medicine, priority 2023, published 2026)

Amino acid sequences for entries named in this document (tags omitted). Residues count along the entry.
UniProt P37023, 22-503: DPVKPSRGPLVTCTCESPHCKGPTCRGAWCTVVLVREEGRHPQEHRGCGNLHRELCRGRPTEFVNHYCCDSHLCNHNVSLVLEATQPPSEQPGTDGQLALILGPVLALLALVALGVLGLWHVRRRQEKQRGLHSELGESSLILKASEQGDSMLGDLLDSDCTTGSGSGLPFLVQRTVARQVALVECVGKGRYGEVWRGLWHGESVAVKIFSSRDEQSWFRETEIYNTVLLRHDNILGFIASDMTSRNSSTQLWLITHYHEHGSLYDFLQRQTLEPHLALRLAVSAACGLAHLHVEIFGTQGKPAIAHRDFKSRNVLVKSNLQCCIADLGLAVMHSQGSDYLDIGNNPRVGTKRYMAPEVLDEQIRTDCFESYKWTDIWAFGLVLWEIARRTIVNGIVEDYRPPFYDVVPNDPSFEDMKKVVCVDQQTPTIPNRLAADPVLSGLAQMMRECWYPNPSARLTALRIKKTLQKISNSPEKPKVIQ

Legend:
ACVRL1 [1] = biological target: T1, ACVRL1 (Homo sapiens, UniProt P37023); assay: Promega NanoBRET live-cell target engagement, ACVRL1; conditions: NanoBRET ACVRL1 IC50 (μM), in cellulo; NI = No inhibition at 40 μM
ACVRL1 [2] = biological target: T1, ACVRL1; assay: ThermoFisher (Lantha) kinase assay, inhibition of ACVRL1; format: biochemical; design: purchased ThermoFisher; conditions: in vitro, NA = not active at 1 μM
ACVR1 = biological target: T2, ACVR1 (Homo sapiens, UniProt Q04771); assay: ThermoFisher (Lantha) kinase assay, inhibition of ACVR1; format: biochemical; conditions: in vitro
T2 construct: purchased ThermoFisher
T2 sequence (Q04771 21-509): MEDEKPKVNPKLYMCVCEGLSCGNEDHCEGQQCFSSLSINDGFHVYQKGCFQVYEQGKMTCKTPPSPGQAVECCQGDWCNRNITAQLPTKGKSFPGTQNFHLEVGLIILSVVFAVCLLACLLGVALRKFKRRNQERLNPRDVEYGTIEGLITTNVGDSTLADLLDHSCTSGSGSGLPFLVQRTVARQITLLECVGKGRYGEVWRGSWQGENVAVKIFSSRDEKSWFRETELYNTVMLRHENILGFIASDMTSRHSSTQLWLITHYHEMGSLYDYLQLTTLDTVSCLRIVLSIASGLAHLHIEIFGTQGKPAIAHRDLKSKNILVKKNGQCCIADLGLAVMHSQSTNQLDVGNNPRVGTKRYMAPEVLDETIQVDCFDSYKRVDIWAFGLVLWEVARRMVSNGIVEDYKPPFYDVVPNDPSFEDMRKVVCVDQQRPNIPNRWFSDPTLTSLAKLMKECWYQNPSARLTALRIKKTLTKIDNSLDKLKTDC

| SMILES | IC50 (ACVRL1 [1]) | IC50 (ACVRL1 [2]) | IC50 (ACVR1) |
| --- | --- | --- | --- |
| COc1cc(F)cc(-c2nc3ccc(C(=O)NCCCN(C)C)cc3n2C2CCC2)c1 [CDD-2617, 1-cyclobutyl-N-(3-(dimethylamino)propyl)-2-(3-fluoro-5-methoxyphenyl)-1H-benzo[d]imidazole-6-carboxamide] | > 40 µM | 170 nM | 49 nM |
| COc1cc(-c2nc3ccc(C(=O)NCCCN4CCN(c5ccccc5)C(=O)C4)cc3n2C2CCC2)cc(OC)c1OC [CDD-2790, 1-cyclobutyl-N-(3-(3-oxo-4-phenylpiperazin-1-yl)propyl)-2-(3,4,5-trimethoxyphenyl)-1H-benzo[d]imidazole-6-carboxamide] | > 40 µM | 40.8 nM | 8.5 nM |
| CNC(=O)[C@H]1C[C@H](n2c(-c3ccc(OC)c(OC)c3)nc3ccc(C(=O)NCCCN4CCN(c5cccc(C)c5C)CC4)cc32)C1 [CDD-2421, 2-(3,4-dimethoxyphenyl)-N-(3-(4-(2,3-dimethylphenyl)piperazin-1-yl)propyl)-1-((1r,3r)-3-(methylcarbamoyl)cyclobutyl)-1H-benzo[d]imidazole-6-carboxamide] | 38 µM | 77 nM | 7.9 nM |
| COc1cc(-c2nc3ccc(C(=O)NCCN4CCN(C5CCCCC5)CC4)cc3n2C2CCC2)cc(OC)c1OC [CDD-2794, 1-cyclobutyl-N-(2-(4-cyclohexylpiperazin-1-yl)ethyl)-2-(3,4,5-trimethoxyphenyl)-1H-benzo[d]imidazole-6-carboxamide] | > 40 µM | 11.2 nM | 10.2 nM |
| CNC(=O)[C@H]1C[C@H](n2c(-c3cc(OC)c(OC)c(OC)c3)nc3ccc(C(=O)NCCCN4CCN(C)CC4)cc32)C1 [CDD-2280, 1-((1r,3r)-3-(methylcarbamoyl)cyclobutyl)-N-(3-(4-methylpiperazin-1-yl)propyl)-2-(3,4,5-trimethoxyphenyl)-1H-benzo[d]imidazole-6-carboxamide] | > 40 µM | 30.7 nM | 23.1 nM |
| COc1cc(-c2nc3ccc(C(=O)NCCCN4CCN(c5ccccc5)CC4)cc3n2C2CCC2)cc(OC)c1OC [CDD-2315, 1-cyclobutyl-N-(3-(4-phenylpiperazin-1-yl)propyl)-2-(3,4,5-trimethoxyphenyl)-1H-benzo[d]imidazole-6-carboxamide] | > 40 µM | 10.9 nM | 4.2 nM |
| CNC(=O)[C@H]1C[C@H](n2c(-c3cc(OC)c(OC)c(OC)c3)nc3ccc(C(=O)NCCCN(C)C)cc32)C1 [CDD-2281, N-(3-(dimethylamino)propyl)-1-((1r,3r)-3-(methylcarbamoyl)cyclobutyl)-2-(3,4,5-trimethoxyphenyl)-1H-benzo[d]imidazole-6-carboxamide] | > 40 µM | 15.6 nM | 14.6 nM |
| CNC(=O)[C@H]1C[C@H](n2c(-c3cc(F)cc(OC)c3)nc3ccc(C(=O)NCCCN4CCN(c5ccccc5)CC4)cc32)C1 [CDD-2340, 2-(3-fluoro-5-methoxyphenyl)-1-((1r,3r)-3-(methylcarbamoyl)cyclobutyl)-N-(3-(4-phenylpiperazin-1-yl)propyl)-1H-benzo[d]imidazole-6-carboxamide] | > 40 µM | 390 nM | 20.5 nM |
| CNC(=O)[C@H]1C[C@H](n2c(-c3cc(OC)c(OC)c(OC)c3)nc3ccc(C(=O)NCC4CCN(C)CC4)cc32)C1 [CDD-2282, 1-((1r,3r)-3-(methylcarbamoyl)cyclobutyl)-N-((1-methylpiperidin-4-yl)methyl)-2-(3,4,5-trimethoxyphenyl)-1H-benzo[d]imidazole-6-carboxamide] | > 40 µM | 16.5 nM | 16.4 nM |
| CNC(=O)[C@H]1C[C@H](n2c(-c3cccc(OC)c3)nc3ccc(C(=O)NCCCN4CCN(c5ccccc5)CC4)cc32)C1 [CDD-2313, 2-(3-methoxyphenyl)-1-((1r,3r)-3-(methylcarbamoyl)cyclobutyl)-N-(3-(4-phenylpiperazin-1-yl)propyl)-1H-benzo[d]imidazole-6-carboxamide] | > 40 µM | 198 nM | 16 nM |

The next compounds have a lower IC50 (ACVRL1 [1]) than those just listed; values first:

| IC50 (ACVRL1 [1]) | IC50 (ACVRL1 [2]) | IC50 (ACVR1) | SMILES |
| --- | --- | --- | --- |
| 36.7 µM | 9.7 nM | 3.8 nM | COc1cc(-c2nc3ccc(C(=O)NCCCN4CCN(c5ccccn5)CC4)cc3n2C2CCC2)cc(OC)c1OC [CDD-2787, 1-cyclobutyl-N-(3-(4-(pyridin-2-yl)piperazin-1-yl)propyl)-2-(3,4,5-trimethoxyphenyl)-1H-benzo[d]imidazole-6-carboxamide] |
| 34 µM | 124 nM | 17.4 nM | COc1cc(OC)cc(-c2nc3ccc(C(=O)NCCCN4CCN(c5cccc(C)c5C)CC4)cc3n2C2CCC2)c1 [CDD-2469, 1-cyclobutyl-2-(3,5-dimethoxyphenyl)-N-(3-(4-(2,3-dimethylphenyl)piperazin-1-yl)propyl)-1H-benzo[d]imidazole-6-carboxamide] |
| 32.6 µM | 9.2 nM | 9 nM | COc1cc(-c2nc3ccc(C(=O)NCCCN4CCN(C)C(c5ccccc5)C4)cc3n2C2CCC2)cc(OC)c1OC (stereo not drawn) [CDD-2793, 1-cyclobutyl-N-(3-(4-methyl-3-phenylpiperazin-1-yl)propyl)-2-(3,4,5-trimethoxyphenyl)-1H-benzo[d]imidazole-6-carboxamide] |
| 29 µM | 16.7 nM | 4.1 nM | COc1cc(-c2nc3ccc(C(=O)NCCCN4CCN(C5CCCCC5)CC4)cc3n2C2CCC2)cc(OC)c1OC [CDD-2792, 1-cyclobutyl-N-(3-(4-cyclohexylpiperazin-1-yl)propyl)-2-(3,4,5-trimethoxyphenyl)-1H-benzo[d]imidazole-6-carboxamide] |
| 8.55 µM | 4.2 nM | 3.4 nM | COc1cc(-c2nc3ccc(C(=O)NCC4(O)CCN(Cc5ccccc5)CC4)cc3n2C2CCC2)cc(OC)c1OC [CDD-2795, N-((1-benzyl-4-hydroxypiperidin-4-yl)methyl)-1-cyclobutyl-2-(3,4,5-trimethoxyphenyl)-1H-benzo[d]imidazole-6-carboxamide] |
